Laboratory results published in US20250354195A1, “METHOD OF SCREENING” (UNIVERSITY OF DUNDEE, priority 2024, published 2025).

Sequences of proteins named here, by UniProt entry; tags and fusion partners are left off.
UniProt P49841, whole entry: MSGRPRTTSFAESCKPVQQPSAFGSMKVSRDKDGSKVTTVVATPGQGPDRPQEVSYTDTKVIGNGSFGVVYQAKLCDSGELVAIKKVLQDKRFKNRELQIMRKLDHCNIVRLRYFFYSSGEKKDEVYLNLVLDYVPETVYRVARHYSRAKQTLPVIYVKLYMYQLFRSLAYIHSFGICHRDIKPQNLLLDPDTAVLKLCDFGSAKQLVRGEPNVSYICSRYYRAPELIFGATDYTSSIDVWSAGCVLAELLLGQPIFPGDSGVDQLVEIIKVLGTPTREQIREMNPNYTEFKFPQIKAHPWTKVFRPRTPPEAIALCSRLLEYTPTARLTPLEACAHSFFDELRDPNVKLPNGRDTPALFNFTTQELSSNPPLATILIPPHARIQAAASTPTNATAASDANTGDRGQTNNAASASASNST
UniProt Q96SW2, whole entry: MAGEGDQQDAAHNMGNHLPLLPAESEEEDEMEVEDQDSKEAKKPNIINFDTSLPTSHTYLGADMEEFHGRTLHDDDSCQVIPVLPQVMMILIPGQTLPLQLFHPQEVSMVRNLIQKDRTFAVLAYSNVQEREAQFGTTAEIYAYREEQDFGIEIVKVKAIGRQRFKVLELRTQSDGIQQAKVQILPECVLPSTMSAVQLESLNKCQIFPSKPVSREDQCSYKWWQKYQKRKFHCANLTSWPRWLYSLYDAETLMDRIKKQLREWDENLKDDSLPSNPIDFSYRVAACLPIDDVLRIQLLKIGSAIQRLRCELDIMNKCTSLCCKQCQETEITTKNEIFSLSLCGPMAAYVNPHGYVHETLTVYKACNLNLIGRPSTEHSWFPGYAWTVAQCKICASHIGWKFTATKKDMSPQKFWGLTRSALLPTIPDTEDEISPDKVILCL
UniProt Q16531, whole entry partner: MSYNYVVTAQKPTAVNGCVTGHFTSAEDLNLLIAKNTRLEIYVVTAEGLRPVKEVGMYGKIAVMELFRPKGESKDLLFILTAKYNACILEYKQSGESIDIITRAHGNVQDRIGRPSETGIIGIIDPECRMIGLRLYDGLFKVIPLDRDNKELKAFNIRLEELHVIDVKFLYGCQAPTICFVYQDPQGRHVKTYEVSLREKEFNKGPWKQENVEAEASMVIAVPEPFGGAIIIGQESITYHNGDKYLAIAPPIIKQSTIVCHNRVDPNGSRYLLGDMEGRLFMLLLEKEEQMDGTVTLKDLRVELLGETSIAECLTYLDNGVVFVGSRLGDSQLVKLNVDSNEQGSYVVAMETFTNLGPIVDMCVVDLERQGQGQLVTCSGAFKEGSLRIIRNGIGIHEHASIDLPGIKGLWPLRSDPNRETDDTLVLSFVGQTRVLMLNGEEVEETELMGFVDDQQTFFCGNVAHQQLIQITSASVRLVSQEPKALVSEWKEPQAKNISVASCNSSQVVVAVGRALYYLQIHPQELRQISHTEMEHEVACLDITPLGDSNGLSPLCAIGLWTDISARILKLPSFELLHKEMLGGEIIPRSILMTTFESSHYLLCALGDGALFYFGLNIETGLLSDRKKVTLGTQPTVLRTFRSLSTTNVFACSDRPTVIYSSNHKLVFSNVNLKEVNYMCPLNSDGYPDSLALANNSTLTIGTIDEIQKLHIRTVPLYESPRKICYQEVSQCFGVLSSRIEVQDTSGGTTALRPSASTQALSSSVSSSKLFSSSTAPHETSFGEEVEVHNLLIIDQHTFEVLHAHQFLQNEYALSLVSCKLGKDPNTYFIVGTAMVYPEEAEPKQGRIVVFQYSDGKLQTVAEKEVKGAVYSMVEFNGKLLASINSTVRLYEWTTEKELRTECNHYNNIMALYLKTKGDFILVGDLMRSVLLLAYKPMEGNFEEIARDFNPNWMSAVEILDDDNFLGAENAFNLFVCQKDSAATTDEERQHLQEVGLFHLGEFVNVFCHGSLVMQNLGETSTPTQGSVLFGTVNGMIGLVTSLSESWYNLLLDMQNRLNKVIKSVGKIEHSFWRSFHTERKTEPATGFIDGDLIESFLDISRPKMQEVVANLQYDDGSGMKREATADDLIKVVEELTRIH

Target: GSK3β (Homo sapiens, UniProt P49841+Q96SW2)
Experiment: High throughput screening for GSK3β-HiBiT targeted degradation (Nano-Glo HiBiT Lytic luminescence)
Settings: HEK293 cells with endogenously HiBiT-tagged GSK3β, 24 h incubation, products of one-pot plate array (FIG. 1, Method A); for DC50: read-out: DC50 (half-maximal degradation concentration), 0.01-30 μM
Description: High throughput Screening for GSK3 β-HiBiTL: Test compounds were transferred into Echo plate (Beckman, 001-12782, Echo LDV384) using BRAVO automated liquid handling platform which serves as source plate (10 mM stocks in DMSO). Serial dilutions of the compounds were done using Echo550 liquid handler as 30 μM, 10 μM, 3 μM, 1 μM, 0.3 μM, 0.1 μM, 0.03 μM and 0.01 μM in final concentrations in assay plates. One column of each assay plate was reserved for DMSO control treatments. After compounds were serially diluted in assay plates, HEK293 cells (CRL-1573, ATCC) genetically engineered using CRISPR/Cas9 technology to endogenously tag GSK3p protein with HiBiT tag at the C-terminus (Schwinn et al., 2018, CRISPR-mediated tagging of endogenous proteins with a luminescent peptide, ACS Chem. Biol., 13(2), 467-74) were seeded at a density of 5000 cells/well in 50 μL complete media in 384-well TC-grade white plates (Perkin Elmer, Culturplate, 6007619) with the help of Multidrop Combi liquid dispenser and cells were incubated for 24 h with compounds at 37° C. in humidified incubators with 5% CO2. At the end of the treatment, equal volume of Nano-Glo HiBiT Lytic reagent (Promega N3030) supplied with Nano-Glo HiBiT Lytic substrate and LgBiT Protein were added into each well according to manufacturer's instructions, and cells were incubated on an orbital shaker for 15 seconds and for a further 15 minutes at room temperature. Luminescence signals were measured in an appropriate plate reader (PHERAstar FSX, BMG Labtech) (Dixon et al., 2016, NanoLuc complementation reporter optimized for accurate measurement of protein interactions in cells, ACS Chem. Biol., 11, 400-8). Changes in protein abundance upon compound treatment were further analysed by normalising raw luminescence values to DMSO values and fold changes were plotted using for parameter logistic regression with GraphPad Prism (10.1.2).
Furthermore, the present investigators have shown that bifunctional compounds manufactured using the method of the present disclosure may be effective in the uses of bifunctional compounds, for example as PROTACs in targeted protein degradation (TPD). […] GSK3p was targeted for degradation using a binder for GSK3p, and a binder for CRBN; the binders were comprised in molecules comprising moieties for reacting with the orthogonally reactive moieties of the linker. […] The “identifier” identifies the well of the multi-well plate that has been sampled, e.g., AHD2B-1-A1 relates to the top left well in FIG. 1. The DC50 provides an indication of the potency of the bifunctional compound in targeted degradation; Dmax provides an indication of the maximum possible degradation. The use of these metrics is further described in Flexible Fitting of PROTAC Concentration-Response Curves with Changepoint Gaussian Processes, Semenova et al., SLAS Discovery, 2021, 26, 1212-1224.

| Structure (SMILES) | Dmax (maximal effect) | DC50 |
| --- | --- | --- |
| COc1ccc(-c2ocnc2C(=O)NCCCn2cc(-c3cccc(CN4CCN(Cc5ccc6c(N7CCC(=O)NC7=O)nn(C)c6c5)CC4)n3)nn2)cc1Cl | 56% | < 250 nM |
| COc1ccc(-c2ocnc2C(=O)NCCCn2cc(COCCOCCN3CCN(Cc4ccc5c(N6CCC(=O)NC6=O)nn(C)c5c4)CC3)nn2)cc1Cl | <30% | > 10000 nM |
| COc1ccc(-c2ocnc2C(=O)NCCCn2cc(CCCCCN3CCN(Cc4ccc5c(N6CCC(=O)NC6=O)nn(C)c5c4)CC3)nn2)cc1Cl | 56% | 410 nM |
| COc1ccc(-c2ocnc2C(=O)NCCCn2cc(COc3ccc(CN4CCN(Cc5ccc6c(N7CCC(=O)NC7=O)nn(C)c6c5)CC4)cc3)nn2)cc1Cl | 52% | < 250 nM |
| COc1ccc(-c2ocnc2C(=O)NCCCn2cc(CCCCCN3CCCN(Cc4ccc5c(N6CCC(=O)NC6=O)nn(C)c5c4)CC3)nn2)cc1Cl | 62% | 530 nM |
| COc1ccc(-c2ocnc2C(=O)NCCCn2cc(COC3CCN(Cc4ccc(C(=O)NC5CCC(=O)NC5=O)c(F)c4)CC3)nn2)cc1Cl (stereo not shown) | <30% | > 10000 nM |
| COc1ccc(-c2ocnc2C(=O)NCCCn2cc(COc3ccc(CN4CC5(C4)CN(Cc4ccc6c(N7CCC(=O)NC7=O)nn(C)c6c4)C5)cc3)nn2)cc1Cl | 41% | 3100 nM |

Further lines, results first:

| Dmax (maximal effect) | DC50 | Structure (SMILES) |
| --- | --- | --- |
| <30% | > 10000 nM | COc1ccc(-c2ocnc2C(=O)NCCCn2cc(-c3ccc(CN4CCN(Cc5ccc(C(=O)NC6CCC(=O)NC6=O)c(F)c5)CC4)cn3)nn2)cc1Cl (stereo not shown) |
| <30% | > 10000 nM | COc1ccc(-c2ocnc2C(=O)NCCCn2cc(CCCCN3CCN(Cc4ccc(C(=O)NC5CCC(=O)NC5=O)c(F)c4)CC3)nn2)cc1Cl (stereo not shown) |
| 37% | 1800 nM | COc1ccc(-c2ocnc2C(=O)NCCCn2cc(COc3ccc(CN4CCN(Cc5ccc(C(=O)NC6CCC(=O)NC6=O)c(F)c5)CC4)cc3)nn2)cc1Cl (stereo not shown) |
| <30% | > 10000 nM | COc1ccc(-c2ocnc2C(=O)NCCCn2cc(CCCCCN3CCN(Cc4ccc(C(=O)NC5CCC(=O)NC5=O)c(F)c4)CC3)nn2)cc1Cl (stereo not shown) |
